Measurements taken from PubChem BioAssay AID624464 (National Center for Advancing Translational Sciences (NCATS), 2012).
Only a part is listed here, and it is no random draw. Calls of active or inactive are those of the source. No stated cut-off is given here; in the data, active means potentiation above about 50%; inconclusive means mostly about 30% to 49%; inactive means weaker than that.

Sequences of proteins named here, by UniProt entry; tags and fusion partners are left off.
UniProt P14416, whole entry, looked up: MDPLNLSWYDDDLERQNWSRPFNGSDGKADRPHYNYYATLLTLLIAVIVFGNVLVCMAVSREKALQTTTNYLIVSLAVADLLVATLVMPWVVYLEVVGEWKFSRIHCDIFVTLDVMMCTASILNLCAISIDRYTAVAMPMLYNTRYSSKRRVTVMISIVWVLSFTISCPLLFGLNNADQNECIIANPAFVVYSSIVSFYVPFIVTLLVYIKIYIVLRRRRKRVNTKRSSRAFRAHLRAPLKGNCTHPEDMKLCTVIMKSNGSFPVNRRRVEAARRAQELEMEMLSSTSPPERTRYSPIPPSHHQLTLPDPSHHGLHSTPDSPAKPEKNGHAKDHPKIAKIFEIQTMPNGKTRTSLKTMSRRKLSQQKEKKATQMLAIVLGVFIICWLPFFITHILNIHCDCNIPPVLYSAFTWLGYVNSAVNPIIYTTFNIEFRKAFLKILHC

Target: D(2) dopamine receptor (Homo sapiens) (UniProt P14416)
Assay: Beta-Arrestin HTS for Positive Allosteric Modulators of the Human D2 Dopamine Receptor: Potentiators
Conditions: DiscoveRx D2 beta-arrestin cells, luminescence, 90 min; hits give high values; 100% = 57 uM dopamine signal
From the text: There is great interest in identifying small molecule ligands for G-protein coupled receptors (GPCRs) as nearly 50% of all FDA-approved drugs target these important receptor proteins. […] Amongst the dopamine receptors (DARs), the D2 is arguably one of the most validated drug targets in neurology and psychiatry. For instance, all receptor-based antiparkinsonian drugs primarily work via stimulating the D2 DAR, whereas all FDA-approved antipsychotic agents are antagonists of this receptor. The D2 DAR is also therapeutically targeted in other disorders such as restless legs syndrome, tardive dyskinesia, Tourette's syndrome, and hyperprolactinemia.
To this end, a miniaturized qHTS screen was developed to be screened against the Molecular Libraries Small Molecule Repository (MLSMR). This assay seeks to identify potentiators against the D2 DAR.
NIH Molecular Libraries Probe Production Network [MLPCN]
NIH Chemical Genomics Center [NCGC]
PI Name: David Sibley, National Institutes of Neurological Disorders and Stroke
DiscoveRx D2 cells were thawed from frozen stock and seeded at 2,100 cells/ 3 uL/well media (DiscoveRx Plating Reagent 2) with MultiDrop Combi dispenser (Thermo Scientific, Logan, UT) onto white tissue culture treated 1536-well Aurora plates (Brooks Automation, Chelmsford, MA) and allowed to attach overnight at 37 deg C, 5% CO2. Next, 23 nL/well of compound solutions in DMSO were added with a pintool transfer (Kalypsis, San Diego, CA). As the positive control, 1 uL/well dopamine (EC100, 57 uM final concentration) diluted in buffer (HBSS + 10 mM HEPES + SMB + 0.1 %Tween-20) was dispensed to 1 column of each plate. EC20 (Dopamine at 50 nM final concentration) was dispensed to the rest of the plate except columns 1 &2 which were used as negative control (EC=0, buffer only), 1 uL/well as well. […] The plates were incubated at ambient temperature for 1 hour and then the luminescent signal was read on ViewLux plate reader (PerkinElmer, Waltham, MA).

| SMILES | potentiation |
| --- | --- |
| O=[N+]([O-])c1cc([N+](=O)[O-])c(CCNc2ccccc2)c([N+](=O)[O-])c1 | active: 62.8% |
| CCc1nc2c(n1)c1c(non1O)c1c2no[n+]1[O-] | active: 63.4% |
| O=[N+]([O-])c1cc(Oc2ccc([N+](=O)[O-])cc2C(F)(F)F)cc([N+](=O)[O-])c1 | active: 53.5% |
